{"source": "patent US20080025946A1", "about": "“INTERLEUKIN 21 AND TYROSINE KINASE INHIBITOR COMBINATION THERAPY” (priority 2006, published 2008)", "origin": "cited, not measured here", "system": "advanced kidney cancer", "conditions": "high-dose; cited from earlier work", "data": [{"substance": "IL-2: high-dose interleukin 2 (IL-2), immunotherapy for advanced kidney cancer", "values": [{"measurement": "durable complete responses, share of selected patients", "result": "approximately 7%"}]}]}
